Measured values: PubChem BioAssay AID651710 (Broad Institute, 2012)
The list shows a part of the results, in another mix than the full data. Some results for these compounds are left out of this collection, so the calls shown say nothing about other tests. Calls of active or inactive are those of the source.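 Rule for the calls: active = every replicate showing at least 50% inhibition; inconclusive = mean inhibition at least 50% but not in every replicate; inactive = the rest.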

Chains of the proteins cited; added tags and fusions are not shown.
UniProt P43351, whole entry: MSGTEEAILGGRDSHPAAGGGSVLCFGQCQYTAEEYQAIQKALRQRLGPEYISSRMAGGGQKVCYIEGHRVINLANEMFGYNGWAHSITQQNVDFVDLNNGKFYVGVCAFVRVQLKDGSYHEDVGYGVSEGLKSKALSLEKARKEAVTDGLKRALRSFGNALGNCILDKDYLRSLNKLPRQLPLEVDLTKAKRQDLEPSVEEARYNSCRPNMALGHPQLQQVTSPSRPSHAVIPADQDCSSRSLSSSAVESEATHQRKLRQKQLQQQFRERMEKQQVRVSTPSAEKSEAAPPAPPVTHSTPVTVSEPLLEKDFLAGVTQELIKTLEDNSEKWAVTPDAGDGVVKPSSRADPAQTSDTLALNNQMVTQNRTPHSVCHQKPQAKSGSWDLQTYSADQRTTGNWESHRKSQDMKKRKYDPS

biological target: DNA repair protein RAD52 homolog (Homo sapiens) (UniProt P43351); assay: RAD52 DNA annealing inhibitors, primary screen, biochemical, FRET, single point, set 2 (AID 651710); conditions: recombinant RAD52 DNA annealing, FRET fluorescence; at 18.7 µM; active compounds read high

SMILES | inhibition
O=C(OCCN1CCCC1)C(O)(c1ccccc1)c1ccccc1 | inactive: -32.7%
CC(C)Oc1ccc(C(=O)NCC2(N(C)C)CCCCC2)cc1 | inactive: -11.2%
COc1ccc(Br)c(C(=O)NCC2(N3CCCCC3)CCCCC2)c1 | inactive: -25.3%
C=C(C)C#CC(O)(C(=O)OC1CCN(C)CC1)c1ccccc1 (configuration not stated) | inactive: -3.08%
COc1cc(C(=O)NCC2(N(C)C)CCCCC2)c([N+](=O)[O-])cc1OC | inactive: -15%
CN(C)C1(CNC(=O)c2ccc(Br)cc2)CCCCC1 | inactive: -6.27%
O=C(NCC1(N2CCCCC2)CCCCC1)c1cccc(Cl)c1 | inactive: -25.1%
COc1ccc(Cl)cc1C(=O)NCC1(N(C)C)CCCCC1 | inactive: 4.43%
COc1cccc(C(=O)NCC2(N3CCCCC3)CCCCC2)c1 | inactive: -23.8%
CN(C)c1ccc(C(=O)NCC2(N(C)C)CCCCC2)cc1 | inactive: -1.06%
CN(C)C1CCCC1OC(=O)C(O)(c1ccccc1)c1ccccc1 (configuration not stated) | inactive: 3.47%
Cc1ccccc1C(=O)NCC1(N2CCCCC2)CCCCC1 | inactive: -0.678%
O=C(NCC1(N2CCCCC2)CCCCC1)c1cccc(Br)c1 | inactive: -15.2%
Cc1cc(C(=O)NCC2(N3CCCCC3)CCCCC2)ccc1[N+](=O)[O-] | inactive: 5.43%
COc1ccc(C(=O)NCC2(N(C)C)CCCCC2)cc1 | inactive: -14.7%
O=C(NCC1(N2CCCCC2)CCCCC1)c1cc(F)c(F)cc1Cl | inactive: -29.6%
C=CCN1CCN(CCOC(=O)C(O)(c2ccccc2)c2ccccc2)CC1 | inactive: -8.38%
CN1[C@@H]2CC[C@H]1CC(OC(=O)C(O)(c1ccccc1)c1ccccc1)C2 (some centres not stated) | inactive: -10.6%
O=C(NCC1(N2CCCCC2)CCCCC1)c1cc([N+](=O)[O-])ccc1Cl | inactive: -7.83%
Cc1ccc(C(=O)NCC2(N3CCCCC3)CCCCC2)cc1 | inactive: -13.5%
COc1cc(SC)ccc1C(=O)NCC1(N(C)C)CCCCC1 | inactive: -13.4%
CCN(CC)CC(C)C(C)OC(=O)C(O)(c1ccccc1)c1ccccc1 (configuration not stated) | inactive: -16.8%
